For experiment [1], the target named is T1, HIV-1YU-2 gp120 binding to mAb 17b (Human immunodeficiency virus type 1 group M subtype B, UniProt P35961).
T1 construct: made in house; host or cells: Drosophila S2 cells (gp120)
In words: biochemical.

Experiment [2] concerns the target T2, HIV-1 YU-2 gp120 binding to F105 (Human immunodeficiency virus type 1 group M subtype B, UniProt P35961).
T2 construct: made in house; host or cells: Drosophila S2 cells (gp120)
As to the kind of experiment: ELISA: inhibition of mAb F105 binding to immobilized YU-2 gp120. An excerpt:
(§1) FIGS. 13A-13C depict a series of chemical structures and a graph. […] FIG. 13C is a bar graph of inhibition by UM 17 of the binding of CD4i antibodies to immobilized YU-2 gp120. The (%) of binding of antibodies mAb F105 and IgG b12 to immobilized YU-2 gp120 is plotted against the concentration of the inhibitor peptide.

Experiment [3] has as its target T3, HIV-1 YU-2 gp120 binding to b12 (Human immunodeficiency virus type 1 group M subtype B, UniProt P35961).
T3 construct: made in house; host or cells: Drosophila S2 cells (gp120)
As to the kind of experiment: ELISA: inhibition of IgG b12 binding to immobilized YU-2 gp120.
From the text: as §1

The structures appear in SMILES notation.

For orientation: IC50 means the concentration at which inhibition is half-maximal. Higher therefore signals lower potency.

In experiment [1], `CC[C@H](C)[C@H](NC(=O)[C@@H](N)CCCNC(=N)N)C(=O)N[C@@H](CC(N)=O)C(=O)N[C@@H](CC(N)=O)C(=O)N[C@H](C(=O)N1C[C@@H](n2cc([C]34[CH]5[CH]6[CH]7[CH]3[Fe]6754389%10[CH]4[CH]3[CH]8[CH]9[CH]4%10)nn2)C[C@H]1C(=O)N[C@@H](Cc1c[nH]c2ccccc12)C(N)=O)[C@@H](C)CC` (stereo partly drawn) [UM12] displayed a half-maximal inhibitory concentration (IC50) of 250 nM.

Consider `CC[C@H](C)[C@H](NC(=O)[C@H](CC(N)=O)NC(=O)[C@@H](N)CC(N)=O)C(=O)N1C[C@@H](n2cc([C]34[CH]5[CH]6[CH]7[CH]3[Fe]6754389%10[CH]4[CH]3[CH]8[CH]9[CH]4%10)nn2)C[C@H]1C(=O)N[C@@H](Cc1c[nH]c2ccccc12)C(N)=O` (stereo partly drawn) [UM17], for which the figures for the half-maximal inhibitory concentration (IC50) in experiment [2] and in experiment [3] were 600 ± 50 nM and 4000 ± 170 nM, respectively.

(Values after US8951963B2, “Active cores of peptide triazole HIV-1 entry inhibitors” (priority 2009, dated 2015).)
